Values of other authors as cited in PMC6311893, “Computational prediction of plasma protein binding of cyclic peptides from small molecule experimental data using sparse modeling techniques” (BMC Bioinformatics, 2018).
Where two headings read alike, the source gives them in different places.

Tested on: plasma protein
Details: cited from earlier work

Substance	PPB (fb) (plasma)	PPB (fb)
Buprenorphine	0.96	–
Warfarin	0.99	–
ascorbic acid	0.15	–
gemfibrozil	0.97	–
medroxyprogesterone	–	0.9
